Screens (PubChem BioAssay)
TDP1 block: inhibitors of human tyrosyl-DNA phosphodiesterase TDP1 | recombinant TDP1, AlphaScreen DNA substrate cleavage | Potency, µM (series often up to 130 µM), without a hit: top-dose activity change, negative = inhibition, usual class: inhibitors | actives 0.28% (n = 350,000) | AID 485290; further: potency means the concentration at half of the fitted maximal effect; on the % scale 0 is the no-effect control and ±100 the full control effect; nearly all actives have a fitted effect of over 40% in size
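Recombinant E. coli-expressed Tdp1 (1 nM) preincubated with compound 15 min at RT, then 5'-biotin/3'-phosphotyrosine-FITC DNA substrate (15 nM) added for 5 min. AlphaScreen beads (10 ug/ml) added, 10 min RT; tyrosine-FITC cleavage read as signal loss.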
TDP1 cell CPT: growth inhibition of DT40 Tdp1-/-;hTDP1 cells with camptothecin (screen for TDP1 inhibitors); Potency, µM (titrated, usually from 46.2 µM), for inactives: top-dose activity change, negative = growth inhibition, most hits filed as inhibitors; actives 12% (n = 420,000); chicken DT40 Tdp1-/-;hTDP1 cells + 20 nM CPT, ATP luminescence, 48 h; AID 686979; further: potency means the concentration at half of the fitted maximal effect; on the % scale 0 is the no-effect control and ±100 the full control effect; nearly all actives have a fitted effect of over 55% in size
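Chicken DT40 Tdp1-/- cells stably complemented with human TDP1 were seeded at 400 cells/well in medium containing 20 nM camptothecin, exposed to pin-transferred compounds, and grown at 37 °C for at least 48 hr. Viability was read as ATP luminescence.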
uPA generation: inhibitors of cell surface uPA generation. cell surface uPA generation assay, qHTS. Potency, µM (highest dose often 38.3 µM), inactives show top-dose activity change, negative = inhibition, most hits filed as inhibitors. AID 540303. actives 0.31% (n = 330,000); active means well fitted inhibition curve with a large enough effect; inconclusive means small, poorly fitted or top-dose-only effect; inactive means no such curve, though single readings can be large or run the other way; tested in mouse RAW 264.7 cells; further: potency means the concentration at half of the fitted maximal effect; on the % scale 0 is the no-effect control and ±100 the full control effect; nearly all actives have a fitted effect of over 55% in size
miR-21 reporter: miR-21 reporter, rising signal | HeLa miR-21 FLuc reporter, luciferase, 48 h | Potency, µM (top dose mostly 38.3 µM), inactives show at the highest dose reporter change, positive = more light | 340,000 tested, under 10 active | AID 2288; active = well fitted rising curve with a large enough effect; inconclusive = small, poorly fitted or top-dose-only effect; inactive = no such curve, though single readings can be large or run the other way;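 note: % of control where 0% means no effect; miR-21 action dims this reporter so a rising signal means less miR-21 action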
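HeLa cells endogenously expressing miR-21, stably carrying CMV-driven firefly luciferase with a downstream miR-21 binding site, 2000 cells/well. Titrations up to approximately 40 uM, 48 hours; luciferase luminescence read.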
TDP1 cell noCPT: qHTS for Inhibitors of human tyrosyl-DNA phosphodiesterase 1 (TDP1): qHTS in cells in absence of CPT | DT40 Tdp1-/- hTDP1 cells, no CPT, ATP luminescence, 48 h | Potency, µM (doses to about 46.2 µM), for the others: at the highest dose activity change, negative = growth inhibition, usual class: inhibitors | actives 15% (n = 420,000); further: potency means the concentration at half of the fitted maximal effect; on the % scale 0 is the no-effect control and ±100 the full control effect; nearly all actives have a fitted effect of over 55% in size
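Growth kinetics read by CellTiter-Glo luminescence after ≥48 hr at 37 °C. Cells: DT40 Tdp1-/- stably carrying human TDP1, 400 per well, compound exposure in the absence of CPT (DMSO vehicle).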
Active calls of the source: *. The list is not random: actives were taken first. Their share in the collection is about 16%. Unless noted, the call rests on the fitted dose curve; in most records, active means well fitted curve in the direction sought with a large enough effect; inconclusive means small, poorly fitted or top-dose-only effect, or another doubt; inactive means no such curve, though single readings can be large; an effect the other way counts as inactive or inconclusive.

Cc1cccc(Oc2ccc(S(=O)(=O)N3CCCCC3)cc2N)c1 was read as TDP1 block 3%, TDP1 cell CPT inconclusive, uPA generation -8%, miR-21 reporter 12% and TDP1 cell noCPT inconclusive.
For Cc1ccc(S(=O)(=O)c2ccc(Oc3cccc(C)c3)cc2)cc1 the results were TDP1 cell CPT inconclusive, uPA generation 3%, miR-21 reporter -2% and TDP1 cell noCPT 21µM*.
Cc1ccc(-c2nnn(C(C)C(=O)N3c4ccccc4CCc4ccccc43)n2)cc1 (stereo not drawn) was read as TDP1 block 0%, TDP1 cell CPT inconclusive, uPA generation 11%, miR-21 reporter 0% and TDP1 cell noCPT 29µM*.
`CC(C(=O)N1c2ccccc2Sc2ccccc21)n1nnc(-c2cccs2)n1` (stereo not drawn) gave TDP1 block 7%, TDP1 cell CPT -9%, uPA generation 16%, miR-21 reporter 5% and TDP1 cell noCPT -1%.
For CC(C(=O)N1c2ccccc2CCc2ccccc21)n1nnc(-c2ccc(N(C)C)cc2)n1 (stereo not drawn) the results were TDP1 block 4%, TDP1 cell CPT inconclusive, uPA generation 6%, miR-21 reporter -7% and TDP1 cell noCPT 16µM*.
`Cc1cccc(-n2ncc(C(=O)N3CCN(C(=O)c4ccco4)CC3)c2C2CCN(C(=O)OC(C)(C)C)CC2)c1` gave TDP1 block 5%, TDP1 cell CPT inconclusive, miR-21 reporter 1% and TDP1 cell noCPT inconclusive.
COc1cccc(N2CCN(C(=O)c3cnn(C(C)(C)C)c3C3CCN(C(=O)OC(C)(C)C)CC3)CC2)c1 was read as TDP1 block 1%, TDP1 cell CPT inconclusive, miR-21 reporter 2% and TDP1 cell noCPT inconclusive.
For CC(C)(C)OC(=O)N1CCC(c2c(C(=O)N3CCN(c4ccc(Cl)cc4)CC3)cnn2-c2ccc(F)cc2F)CC1 the results were TDP1 block 3%, TDP1 cell CPT inconclusive, miR-21 reporter 25% and TDP1 cell noCPT 16µM*.
Cc1cccc(-n2ncc(C(=O)NCc3ccco3)c2C2CCN(C(=O)OC(C)(C)C)CC2)c1 was read as TDP1 block 5%, TDP1 cell CPT 16µM*, miR-21 reporter 15% and TDP1 cell noCPT inconclusive.
`COc1cccc(N2CCN(C(=O)c3cnn(-c4ccccc4Cl)c3C3CCN(C(=O)OC(C)(C)C)CC3)CC2)c1` gave TDP1 block 5%, TDP1 cell CPT inconclusive, miR-21 reporter inconclusive and TDP1 cell noCPT 21µM*.
Screening CCN1CCN(C(=O)c2cnn(-c3cccc(C)c3)c2C2CCN(C(=O)OC(C)(C)C)CC2)CC1 returned TDP1 block 2%, TDP1 cell CPT 21µM*, miR-21 reporter -1% and TDP1 cell noCPT inconclusive.
Screening CCC(C(=O)OC(C)C)c1ccc2ccccc2c1 (stereo not drawn) returned TDP1 block -19%, TDP1 cell CPT inconclusive, uPA generation -3% and TDP1 cell noCPT -16%.
`COc1ccc(NC(=O)c2c(C(F)(F)F)nn(C)c2Cl)cc1` gave TDP1 block 2%, TDP1 cell CPT 4%, uPA generation 0%, miR-21 reporter -12% and TDP1 cell noCPT inconclusive.
Cc1ccc(-n2ncc(C(=O)N3CCN(Cc4ccccc4)CC3)c2C2CCN(C(=O)OC(C)(C)C)CC2)c(C)c1 was read as TDP1 block 7%, TDP1 cell CPT 4.6µM*, miR-21 reporter -3% and TDP1 cell noCPT 13µM*.
For Cc1ccc(-n2ncc(C(=O)N3CCN(C(=O)c4ccco4)CC3)c2C2CCN(C(=O)OC(C)(C)C)CC2)cc1 the results were TDP1 block 4%, TDP1 cell CPT -3%, miR-21 reporter -3% and TDP1 cell noCPT -10%.
For COc1cccc(N2CCN(C(=O)c3cnn(-c4ccc(C)cc4C)c3C3CCN(C(=O)OC(C)(C)C)CC3)CC2)c1 the results were TDP1 block 4%, TDP1 cell CPT inconclusive, miR-21 reporter 26% and TDP1 cell noCPT 21µM*.
Screening Cc1c(Cl)cccc1-n1ncc(C(=O)N2CCN(c3ncccn3)CC2)c1C1CCN(C(=O)OC(C)(C)C)CC1 returned TDP1 block 0%, TDP1 cell CPT inconclusive, miR-21 reporter -1% and TDP1 cell noCPT inconclusive.
For Cc1cccc(C)c1-n1ncc(C(=O)N2CCN(c3ccccc3)CC2)c1C1CCN(C(=O)OC(C)(C)C)CC1 the results were TDP1 block 5%, TDP1 cell CPT inconclusive, miR-21 reporter 25% and TDP1 cell noCPT inconclusive.
Screening CC(C)(C)OC(=O)N1CCC(c2c(C(=O)N3CCN(c4ccccc4F)CC3)cnn2-c2ccccc2Cl)CC1 returned TDP1 block 1%, TDP1 cell CPT 18µM*, miR-21 reporter -6% and TDP1 cell noCPT 16µM*.
Screening O=C(NCc1ccncc1)C1CCCN1S(=O)(=O)c1ccc(Cl)cc1 (stereo not drawn) returned TDP1 block 1%, TDP1 cell CPT -29%, uPA generation 0%, miR-21 reporter 2% and TDP1 cell noCPT -15%.
`COc1ccc(NC(=O)CCCn2c(=O)c3cccn3c3ccccc32)c(OC)c1` gave TDP1 block 4%, TDP1 cell CPT 13µM*, miR-21 reporter -98% and TDP1 cell noCPT 10µM*.
For COc1ccccc1NC(=O)CCn1c(=S)oc2ccccc21 the results were TDP1 cell CPT -4%, uPA generation 5%, miR-21 reporter -7% and TDP1 cell noCPT 22%.
Screening COc1ccc(OC)c(NC(=O)Cn2c(=O)c3cccn3c3ccccc32)c1 returned TDP1 block 5%, TDP1 cell CPT inconclusive, miR-21 reporter 28% and TDP1 cell noCPT 12µM*.
Screening COc1ccccc1NC(=O)CCn1c(=O)c2cccn2c2ccccc21 returned TDP1 block 5%, TDP1 cell CPT inconclusive, uPA generation 11%, miR-21 reporter -3% and TDP1 cell noCPT 23µM*.
`C=Cc1ccc(Cn2c(C)c(CNCc3ccc(SC)cc3)c(C(=O)O)c2C)cc1` gave TDP1 block 5%, TDP1 cell CPT 5%, miR-21 reporter 2% and TDP1 cell noCPT -3%.
`O=C(C[n+]1csc2ccccc21)c1ccc(O)c(O)c1` gave TDP1 cell CPT inconclusive and TDP1 cell noCPT 16µM*.
Screening O=C(C[n+]1cccc(Br)c1)c1ccc(O)c(O)c1 returned TDP1 cell CPT 1% and TDP1 cell noCPT -19%.
Screening NS(=O)(=O)c1ccc(CCNc2ccnc3cc(Cl)ccc23)cc1 returned TDP1 block 2%, TDP1 cell CPT inconclusive, uPA generation -3%, miR-21 reporter 5% and TDP1 cell noCPT 15µM*.

Sorted by SMILES length (ascending): three of the compounds above
Screening O=C(C[n+]1cccc(Br)c1)c1ccc(O)c(O)c1 returned TDP1 cell CPT 1% and TDP1 cell noCPT -19%.
Screening COc1ccc(OC)c(NC(=O)Cn2c(=O)c3cccn3c3ccccc32)c1 returned TDP1 block 5%, TDP1 cell CPT inconclusive, miR-21 reporter 28% and TDP1 cell noCPT 12µM*.
For Cc1cccc(C)c1-n1ncc(C(=O)N2CCN(c3ccccc3)CC2)c1C1CCN(C(=O)OC(C)(C)C)CC1 the results were TDP1 block 5%, TDP1 cell CPT inconclusive, miR-21 reporter 25% and TDP1 cell noCPT inconclusive.
